{"source": "patent US20140234888A1", "about": "“Method for Improved Selection of Therapeutic Agents” (priority 2013, published 2014)", "key": {"[1]": {"test_system": "whole heparinized blood", "conditions": "patients with CHC viral genotype 1b; cited from earlier work"}, "[2]": {"test_system": "chronic hepatitis C (CHC)", "conditions": "CHC patients, cited from earlier work"}, "[3]": {"test_system": "blood cell fraction", "assay": "TDR-test in vitro, blood of patient B. (Example 2)", "format": "cell-based, human", "conditions": "for increase in TDR: after 24 h of incubation", "method": "Individual selection of anticancer chemotherapy was based on testing the dynamics of TDR in blood with cytostatics—Etoposide (in single therapeutic doses 80-100-120 mg/m2), Cisplatin (25-50-75-100 mg/m2), Carboplatin (150-300-450 mg/m2), Gemcitabine (800-1000-1200 mg/m2), Navelbine (25-30-35 mg/m2), Doxorubicin (20-30-40 mg/m2), Epidoxorubicin (50-70-90 mg/m2), Mitomycin C (4-6-8 mg/m2)."}, "[4]": {"test_system": "whole blood", "assay": "TDR-test in vitro, blood of patient G. (Example 1)", "format": "cell-based, human", "conditions": "1st hour, dose 2 million IU"}, "[5]": {"conditions": "intramuscular introduction; cited from earlier work"}}, "note": "Read-outs that look alike come from different tables or passages of the source.", "data": [{"substance": "Reaferon: russian interferon drug", "values": [{"measurement": "proportion of patients sensitive in vitro", "setting": "[1]", "result": 16.7, "unit": "%"}, {"measurement": "frequency of complete remission", "setting": "[2]; after 6 months of individual therapy with interferon drugs alone", "result": 75.9, "unit": "%"}, {"measurement": "frequency of complete remission", "setting": "[2]; after 12 months of individual therapy with interferon drugs alone", "result": 62, "unit": "%"}]}, {"substance": "Laferon: immunocorrective drug, dosed in million IU, intramuscular", "values": [{"measurement": "increase in TDR", "setting": "[3]; dose 2 000000 IU", "result": 287, "unit": "%"}, {"measurement": "TDR increase compared to the control", "setting": "[4]", "result": 30, "unit": "%"}, {"measurement": "bioavailability", "setting": "[5]", "result": 90, "unit": "%"}]}, {"substance": "IL-2: Interleukin-2, immunoactive drug", "values": [{"measurement": "increase in TDR compared with the control", "setting": "[3]; after 1 hour of incubation, dose 500 000 IU", "result": 25, "unit": "%"}, {"measurement": "increase in TDR", "setting": "[3]; dose 500 000 IU", "result": 467, "unit": "%"}]}]}
